Assay results reported in US9499482B2, “Pyrrolone or pyrrolidinone melanin concentrating hormone receptor-1 antagonists” (BRISTOL-MYERS SQUIBB COMPANY, priority 2012, dated 2016).
Structures can show the parent of a compound that is named as a salt.

By UniProt entry, the sequences of proteins in these tests, tags left out.
UniProt Q99705, whole entry E4Q/A5T: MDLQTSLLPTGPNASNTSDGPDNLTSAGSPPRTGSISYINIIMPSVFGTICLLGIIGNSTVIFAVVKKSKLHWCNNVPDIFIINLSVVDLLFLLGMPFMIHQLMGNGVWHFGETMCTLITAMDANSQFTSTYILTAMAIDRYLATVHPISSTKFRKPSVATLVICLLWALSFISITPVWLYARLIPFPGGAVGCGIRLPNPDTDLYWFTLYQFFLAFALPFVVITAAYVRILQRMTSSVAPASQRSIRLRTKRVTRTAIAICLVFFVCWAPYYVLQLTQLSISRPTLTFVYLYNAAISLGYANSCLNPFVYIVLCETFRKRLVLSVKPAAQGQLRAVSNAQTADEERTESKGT

biological target: human melanin concentrating hormone receptor (MCHR1), mutated (E4Q, A5T) hMCHR1 (Homo sapiens (Human), UniProt Q99705, A5T/E4Q); experiment: Radioligand binding assay for assessment of MCHR1 activity ([125I]-MCH competition, HEK-293 membranes); settings: Table I

Ki | Compound
790 nM | O=C1C(Oc2ccc(C3CC3)cc2)=CCN1[C@H]1CC[C@H](OCCN2CCC2)CC1 [Example 249]

same assay, conditions: Table J

Ki | Compound
0.7 nM | O=C1C(Oc2ccc(C3CC3)cc2)=CCN1c1ccc2c(cnn2CCN2CC=CC2)c1 [Example 266]

same assay, conditions: Table L

Ki | Compound
396 nM | COc1cc(N2CC=C(Oc3ccc(C4CC4)cc3)C2=O)ccc1CN1CCNC(=O)C1 [Example 276]
335 nM | COc1cc(N2CC=C(Oc3ccc(C4CC4)cc3)C2=O)ccc1CN1CC[C@H](O)C1 [Example 280]

same assay, conditions: Table N

Ki | Compound
6 nM | COc1cc(N2CC=C(Oc3ccc(C4CC4)cc3)C2=O)ccc1O[C@@H]1CCNC1 [Example 298, (R)-3-(4-Cyclopropylphenoxy)-1-(3-methoxy-4-(pyrrolidin-3-yloxy)phenyl)-1H-pyrrol-2(5H)-one. hydrochloride]

same assay, conditions: membranes from HEK-293 cells expressing mutated (E4Q, A5T) hMCHR1; 0.06-0.1 nM [Phe13,[125I]Tyr19]-MCH

Ki | Compound
13 nM | COc1cc(N2CC[C@H](Oc3ccc(C4CC4)cc3)C2=O)ccc1N1CCOCC1 (stereo in doubt) [Example 134, 3-(4-cyclopropylphenoxy)-1-(3-methoxy-4-morpholinophenyl)pyrrolidin-2-one]
1780 nM | O=C1C(Oc2ccc(C3CC3)cc2)=CCN1[C@H]1C[C@@H](OCCN2CCOCC2)C1 [Example 233]
4 nM | COC(=O)N(C)CCOc1ccc(N2CC[C@H](Oc3ccc(C4CC4)cc3)C2=O)cc1OC [Example 130]
1360 nM | CCc1cc(N2CC[C@@H](Oc3ccc(C4CC4)cc3)C2=O)ccc1N1CCCC1 (stereo in doubt) [Example 137, 3-(4-cyclopropylphenoxy)-1-(3-ethyl-4-(pyrrolidin-1-yl)phenyl)pyrrolidin-2-one]
130 nM | COc1cc(N2CC[C@@H](Oc3ccc(C4CC4)cc3)C2=O)ccc1O[C@@H]1CCNC1 [Example 140]
684 nM | COc1cc(N2CC[C@@H](Oc3ccc(C4CC4)cc3)C2=O)ccc1O[C@H]1CCNC1 [Example 138, (R)-3-(4-Cyclopropylphenoxy)-1-(3-methoxy-4-((S)-pyrrolidin-3-yloxy)phenyl)pyrrolidin-2-one]
0.7 nM | CCc1cc(N2CC=C(Oc3ccc(C4CC4)cc3)C2=O)ccc1OCCN1CCC[C@H](O)C1 [Example 176]
0.9 nM | CC(C)(C)OC(=O)NC1CN(CCOc2ccc(N3CC=C(Oc4ccc(C5CC5)cc4)C3=O)cc2C2CC2)C1 [Example 210]

Second part, the compound before the results:

Compound | Ki
Cc1cc(N2CC[C@H](Oc3ccc(C4CC4)cc3)C2=O)ccc1OCCNCC1(C)COC1 [Example 89] | 1 nM
COc1cc(N2CC[C@H](Oc3ccc(C4CC4)cc3)C2=O)ccc1OCCN1CCC(F)(F)C1 [Example 7] | 7 nM
O=C1[C@@H](Oc2ccc(C3CC3)cc2)CCN1c1ccc(OCCN2CCC(F)(F)C2)c(Cl)c1 [Example 100] | 30 nM
Cc1cc(N2CC[C@H](Oc3ccc(C4CC4)cc3)C2=O)ccc1OCCN(C)C [Example 87] | 1 nM
COc1cc(N2CC[C@@H](Oc3ccc(-c4ccccc4)cc3)C2=O)ccc1OCCN1CCCC1 (stereo in doubt) [Example 109, 3-(biphenyl-4-yloxy)-1-(3-methoxy-4-(2-(pyrrolidin-1-yl)ethoxy)phenyl)pyrrolidin-2-one] | 14 nM
COc1cc(N2CC[C@H](Oc3ccc(C4CC4)cc3)C2=O)ccc1OCCN1CCN(c2ncccn2)CC1 [Example 29] | 6 nM
COc1cc(N2CC[C@H](Oc3ccc(C4CC4)cc3)C2=O)ccc1OCCN1CCC2(CC1)COC2 [Example 38] | 1.1 nM
O=C1[C@@H](Oc2ccc(C3CC3)cc2)CCN1c1ccc(OCCN2CC[C@@H](O)C2)c(Cl)c1 [Example 95] | 1.1 nM
COCC(=O)N(C)CCOc1ccc(N2CC[C@H](Oc3ccc(C4CC4)cc3)C2=O)cc1OC [Example 128] | 6 nM
COc1cc(N2CC[C@H](Oc3ccc(C4CC4)cc3)C2=O)ccc1OCCN1CC[C@@H](F)C1 [Example 4] | 2 nM
CNCCOc1ccc(N2CC[C@H](Oc3ccc(C4CC4)cc3)C2=O)cc1OC (stereo in doubt) [Example 15, 3-(4-cyclopropylphenoxy)-1-(3-methoxy-4-(2-(methylamino)ethoxy)phenyl)pyrrolidin-2-one] | 1.6 nM
Cc1cc(N2CC[C@H](Oc3ccc(C4CC4)cc3)C2=O)ccc1OCCNCC1(CO)COC1 [Example 91] | 1.8 nM
